This is a selection; strong and weak results do not stand in their true shares. Some salts or complexes appear as unconnected parts, following the source record. The source made the active and inactive calls.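 The calls were made as follows: active = activation above the run's mean over test compounds plus 3 SD (cut at about 23% in these data); inactive = the rest.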
Biological target: Muscarinic acetylcholine receptor M5 (Homo sapiens) (UniProt P08912)
Assay: CHRM5 activators raising intracellular calcium – CHO-K1 cells, Fluo-8 calcium fluorescence, primary screen (AID 624037);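 also: signal is peak over basal fluorescence ratio across the kinetic read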
Conditions: CHO-K1 hM5 cells, at 3 µM, active compounds read high, 0% DMSO wells, 100% maximal acetylcholine response

Amino acid sequences for entries named in this document (tags omitted).
UniProt P08912, whole entry: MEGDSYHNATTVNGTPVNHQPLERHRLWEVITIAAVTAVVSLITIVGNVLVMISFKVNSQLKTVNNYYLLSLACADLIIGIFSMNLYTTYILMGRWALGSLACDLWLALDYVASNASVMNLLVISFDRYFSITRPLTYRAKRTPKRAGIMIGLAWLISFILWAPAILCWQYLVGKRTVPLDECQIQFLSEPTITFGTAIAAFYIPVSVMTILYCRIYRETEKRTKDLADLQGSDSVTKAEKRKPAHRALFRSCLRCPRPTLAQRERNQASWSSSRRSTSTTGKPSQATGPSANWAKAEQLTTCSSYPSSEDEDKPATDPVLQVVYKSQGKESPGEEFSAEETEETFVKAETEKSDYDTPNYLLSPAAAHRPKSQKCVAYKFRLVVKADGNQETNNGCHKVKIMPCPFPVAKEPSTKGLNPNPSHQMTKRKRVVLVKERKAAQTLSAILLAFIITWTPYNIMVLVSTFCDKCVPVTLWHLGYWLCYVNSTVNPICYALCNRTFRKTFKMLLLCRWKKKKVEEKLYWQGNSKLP

| Compound | activation |
| --- | --- |
| O=C(OC1CN2CCC1CC2)c1ccc([N+](=O)[O-])cc1 (stereo not drawn) | inactive: -13.8% |
| O=C(OCCN1CCN(CCOCc2ccccc2)CC1)C(O)(c1ccccc1)c1ccccc1 | inactive: -6.24% |
| COc1ccc2c(c1O)-c1c(O)c(OC)cc3c1[C@H](C2)[N+](C)(C)CC3.O=[N+]([O-])c1cc([N+](=O)[O-])c([O-])c([N+](=O)[O-])c1[O-] | inactive: 0.32% |
| O=[N+]([O-])c1cc([N+](=O)[O-])c(Nc2ccc(Cl)cc2)c([N+](=O)[O-])c1 | inactive: 6.76% |
| CP(=O)(Nc1ccccc1F)Oc1ccccc1 (stereo not drawn) | inactive: 1.6% |
| CC(C)c1ccc(OP(C)(=O)Nc2ccc(SC(F)(F)F)cc2)cc1 (stereo not drawn) | inactive: -7.31% |
| Cc1c([N+](=O)[O-])cc([N+](=O)[O-])c(Br)c1[N+](=O)[O-] | inactive: 2.84% |
| CCN(CC)CCCOC(=O)C(O)(c1ccccc1)C1CCCCC1 (stereo not drawn) | inactive: -12.9% |
| CP(=O)(Nc1ccccc1)Oc1ccc(F)cc1 (stereo not drawn) | inactive: -2.8% |
| O=[N+]([O-])c1cc([N+](=O)[O-])c(OC2CCCCC2O)c([N+](=O)[O-])c1 (stereo not drawn) | inactive: 1.84% |
| CCCCCOc1ccc(NP(C)(=O)Oc2ccc(Cl)cc2Cl)cc1 (stereo not drawn) | inactive: 3.87% |
| CCN(CC)CCCNc1ccccc1[N+](=O)[O-].O=[N+]([O-])c1cc([N+](=O)[O-])c(O)c([N+](=O)[O-])c1 | inactive: -6.82% |
| CCOC(=O)c1ccc(NP(C)(=O)Oc2ccc(F)cc2)cc1 (stereo not drawn) | inactive: 3.87% |
| COc1ccc(OP(C)(=O)Nc2ccc(SC(F)(F)F)cc2)cc1 (stereo not drawn) | inactive: -9.4% |
| O=[N+]([O-])c1ccc(OP2(=O)COCCO2)cc1 (stereo not drawn) | inactive: 0.35% |
| O=[N+]([O-])c1cc([N+](=O)[O-])c(NCC2CCS(=O)(=O)C2)c([N+](=O)[O-])c1 (stereo not drawn) | inactive: -0.92% |
| Cc1cc(-c2cccc3ccccc23)c(C)cn1.O=[N+]([O-])c1cc([N+](=O)[O-])c(O)c([N+](=O)[O-])c1 | inactive: -10.2% |
| Cc1c(C(c2ccc3c(c2)OCO3)c2c(C)n(C)n(-c3ccccc3)c2=O)c(=O)n(-c2ccccc2)n1C.O=[N+]([O-])c1cc([N+](=O)[O-])c(O)c([N+](=O)[O-])c1 | inactive: -4.33% |
| COc1ccc(OP(C)(=O)Nc2cccc(Br)c2)cc1 (stereo not drawn) | inactive: 3.14% |
| CN(C)C1(CNC(=O)c2ccc(Cl)c(S(N)(=O)=O)c2)CCCCC1 | inactive: -2.23% |

| Compound | activation |
| --- | --- |
| CN(C)CCOC(=O)C(O)(c1ccccc1)C1CCCCC1 (stereo not drawn) | inactive: -6.84% |
| COc1ccc(NP(C)(=O)Oc2ccccc2OC)cc1 (stereo not drawn) | inactive: -3.24% |
| CP(=O)(Nc1ccc2c(c1)OCCO2)Oc1ccccc1 (stereo not drawn) | inactive: -3.02% |
| Cc1ccccc1NP(C)(=O)Nc1ccccc1C | inactive: -0.69% |
| O=[N+]([O-])c1cc([N+](=O)[O-])c(C(F)(F)F)c([N+](=O)[O-])c1O | inactive: 0.41% |
| CP(=O)(Nc1ccc(SC(F)(F)F)cc1)Oc1ccc(F)cc1 (stereo not drawn) | inactive: 0.49% |
| CCOP(C)(=S)SCC(=O)NC(C)(CC)C(=O)O (stereo not drawn) | inactive: -1.42% |
| CC(C)(C)c1ccc(OP(C)(=O)O)cc1 | inactive: 1.23% |
| COc1ccccc1OP(C)(=O)Nc1ccccc1Br (stereo not drawn) | inactive: -4.08% |
| CP(=O)(Nc1ccc(Cl)cc1)Oc1ccc(F)cc1 (stereo not drawn) | inactive: 0.44% |
| CN(C)C(=O)c1c([N+](=O)[O-])cc([N+](=O)[O-])cc1[N+](=O)[O-] | inactive: -2.21% |
| CCN(CC)CC(O)COC(=O)C(O)(c1ccccc1)C1CCCCC1 (stereo not drawn) | inactive: -16.6% |
| COc1ccc(OP(C)(=O)Nc2ccc(Br)cc2)cc1 (stereo not drawn) | inactive: -2.02% |
| COc1ccccc1OP(C)(=O)Nc1c(C)n(C)n(-c2ccccc2)c1=O (stereo not drawn) | inactive: -0.2% |
| O=C(OCCCN1CCCC1)C(O)(c1ccccc1)C1CCCCC1 (stereo not drawn) | inactive: -19.7% |
| CP(=O)(Oc1ccccc1)N1CCOC1=O (stereo not drawn) | inactive: -3.96% |
| CCc1ccc(OP(C)(=O)Nc2cccnc2)cc1 (stereo not drawn) | inactive: -5.58% |
| CCOC(=O)c1ccc(NP(C)(=O)Oc2ccc(Cl)cc2)cc1 (stereo not drawn) | inactive: -2.47% |
| CP(=O)(OC12CC3CC(CC(C3)C1)C2)OC12CC3CC(CC(C3)C1)C2 | inactive: 8.12% |
| CP(=O)(OCCOc1ccccc1)OCCOc1ccccc1 | inactive: 0.18% |

| Compound | activation |
| --- | --- |
| CP(=O)(Nc1ccc(Cl)cc1Cl)Oc1ccccc1 (stereo not drawn) | inactive: 0.52% |
| CCCCCCCCCCCCCCCC1C[N+](C)(C)CCOP(C)(=O)O1 (stereo not drawn) | inactive: -4.31% |
| O=C1C(O)=C([N+](=O)[O-])C(=O)C(O)=C1[N+](=O)[O-] | inactive: 0.16% |
| Cc1cc(C)cc(OP(C)(=O)Nc2cccc(C(F)(F)F)c2)c1 (stereo not drawn) | inactive: -3.54% |
| COc1ccccc1OP(C)(=O)Nc1ccc(C)c(C)c1 (stereo not drawn) | inactive: 1.11% |
| COc1ccc(OP(C)(=O)Nc2ccccc2Br)cc1 (stereo not drawn) | inactive: -1.76% |
| O=[N+]([O-])c1cc([N+](=O)[O-])c(Nc2ccccn2)c([N+](=O)[O-])c1 | inactive: -0.3% |
| Cc1c(NP(C)(=O)Oc2ccc(C(C)C)cc2)c(=O)n(-c2ccccc2)n1C (stereo not drawn) | inactive: -1.42% |
| CP(=O)(Nc1ccccn1)Oc1ccccc1 (stereo not drawn) | inactive: 1.42% |
| COc1ccccc1OP(C)(=O)Nc1ccc(C)cc1C (stereo not drawn) | inactive: 0.76% |
| CCc1ccc(OP(C)(=O)O)cc1 | inactive: 2.97% |
| COc1ccccc1OP(C)(=O)Nc1ccc(Br)cc1 (stereo not drawn) | inactive: 1.99% |
| COc1ccc(OP(C)(=O)Nc2ccccn2)cc1 (stereo not drawn) | inactive: 0.78% |
| CN(C)CCOC(=O)C(O)(c1ccccc1)C1CCCC1 (stereo not drawn) | inactive: -6.57% |
| COc1ccccc1-c1ccccn1.O=[N+]([O-])c1cc([N+](=O)[O-])c(O)c([N+](=O)[O-])c1 | inactive: 1.35% |
| CCN(CC)CCCOC(=O)C(O)(c1ccccc1)c1ccccc1 | inactive: -15.3% |
| COc1ccccc1OP(C)(=O)Nc1ccc(C)cc1 (stereo not drawn) | inactive: 2.15% |
| Cc1ccc(NP(C)(=O)Oc2ccccc2)c(C)c1 (stereo not drawn) | inactive: -3.88% |

Source: PubChem BioAssay AID624037 (The Scripps Research Institute Molecular Screening Center, 2012)
